This is an account of results in article PMC6234012 (Nature structural & molecular biology, 2018).

Sequences of proteins named here, by UniProt entry; tags and fusion partners are left off. A change or cut given only in a name is not applied to a line headed by its entry.
UniProt Q9H9Q4: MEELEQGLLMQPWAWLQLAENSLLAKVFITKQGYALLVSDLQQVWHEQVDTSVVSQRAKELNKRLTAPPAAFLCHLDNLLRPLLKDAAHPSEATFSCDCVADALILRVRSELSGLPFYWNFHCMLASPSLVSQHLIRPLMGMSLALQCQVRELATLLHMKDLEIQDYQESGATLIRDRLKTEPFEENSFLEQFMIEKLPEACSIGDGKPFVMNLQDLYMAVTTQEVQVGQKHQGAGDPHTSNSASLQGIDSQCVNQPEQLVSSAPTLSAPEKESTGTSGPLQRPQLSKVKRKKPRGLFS
UniProt Q8IW19: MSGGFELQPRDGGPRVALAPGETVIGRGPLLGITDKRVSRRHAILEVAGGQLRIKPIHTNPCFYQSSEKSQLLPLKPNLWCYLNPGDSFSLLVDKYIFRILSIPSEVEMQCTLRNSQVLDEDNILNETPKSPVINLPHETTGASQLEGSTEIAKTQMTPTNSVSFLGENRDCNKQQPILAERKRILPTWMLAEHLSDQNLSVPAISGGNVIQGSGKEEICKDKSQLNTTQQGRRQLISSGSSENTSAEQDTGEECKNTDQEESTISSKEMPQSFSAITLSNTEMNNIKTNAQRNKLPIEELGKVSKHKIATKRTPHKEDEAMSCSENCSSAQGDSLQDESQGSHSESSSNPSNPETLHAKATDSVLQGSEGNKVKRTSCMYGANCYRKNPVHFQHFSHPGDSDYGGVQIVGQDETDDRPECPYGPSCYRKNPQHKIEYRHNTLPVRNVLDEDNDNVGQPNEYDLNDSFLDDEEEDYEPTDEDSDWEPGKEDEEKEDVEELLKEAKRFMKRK

Broadly, the Kd is the equilibrium constant for the complex coming apart. A higher Kd goes with weaker binding.

Assay [1] concerns the target KuFL I112R (Ku80 mutant on APLF site) (Homo sapiens, UniProt P12956+P13010, I112R). Kind of assay: ITC, ligand into KuFL I112R. It is filed as binding. The settings on record: 25°C, pH 8.0. For orientation: ITC needs no label: the signal is the heat of the interaction.
The test system of assay [2] is Ku complexed with a 50bp DNA. Kind of assay: EMSA / gel shift with XLF and Ku-50bp DNA, peptide competition. In kind it is binding. On the technique in general: In EMSA bound probe runs differently from free probe, usually more slowly.
The target of another assay is KuFL+pAPLF (Homo sapiens, UniProt P12956+P13010). Kind of assay: ITC competition, ligand into KuFL saturated with pAPLF. It is filed as binding.
In assay [3] the target is T1, truncated Ku heterodimer Ku70(1–544)/Ku80(1–551), deleted for the C-terminal regions (UniProt P12956 1-544; P13010 1-551). Kind of assay: ITC.
In assay [4] the target is T1, truncated Ku heterodimer …. The assay is described as follows: crystal structure.

With `CC[C@H](C)[C@H](NC(=O)[C@H](CCCNC(=N)N)NC(=O)[C@H](CCCCN)NC(=O)[C@H](CCCNC(=N)N)NC(=O)[C@H](CCC(=O)O)NC(=O)[C@H](C)NC(=O)[C@H](CC(C)C)NC(=O)[C@@H](NC(=O)[C@@H]1CCCN1C(=O)[C@H](CCC(N)=O)NC(=O)[C@H](CCC(N)=O)NC(=O)[C@@H](N)CCCCN)[C@@H](C)CC)C(=O)N[C@@H](CC(C)C)C(=O)N1CCC[C@H]1C(=O)N[C@H](C(=O)N[C@@H](Cc1c[nH]c2ccccc12)C(=O)N[C@@H](CCSC)C(=O)N[C@@H](CC(C)C)C(=O)O)[C@@H](C)O` [pAPLF], the Kd entry in assay [1] is recorded as “NI^(a)”. In assay [2] (EMSA competition, XLF and Ku, 50bp DNA with 5' FAM, room temperature 1 hr), the “Competition with XLF protein for Ku-DNA” value is on record as “does not displace XLF”.

On to `CC(C)C[C@H](NC(=O)[C@H](CCC(N)=O)NC(=O)[C@@H]1CCCN1C(=O)[C@H](CCCNC(=N)N)NC(=O)[C@H](CCC(N)=O)NC(=O)[C@@H](N)CC(C)C)C(=O)N[C@@H](CO)C(=O)N[C@@H](CCCCN)C(=O)N[C@H](C(=O)N[C@@H](CCCCN)C(=O)N[C@@H](CCCNC(=N)N)C(=O)N[C@@H](CCCCN)C(=O)N[C@@H](CCCCN)C(=O)N1CCC[C@H]1C(=O)N[C@@H](CCCNC(=N)N)C(=O)NCC(=O)N[C@@H](Cc1c[nH]c2ccccc12)C(=O)N[C@@H](Cc1ccccc1)C(=O)N[C@@H](CO)C(=O)O)C(C)C` [pXLF(LW)], for which the “Interaction with Ku saturated with the A-KBM, in words” value at KuFL+pAPLF is listed as “no longer interacts with Ku”.

Regarding “XLF: full length XLF protein; 10-His tagged in vitro, CFP-tagged or complemented in cells”, the “Interaction with Ku complexed with 50bp DNA” value in assay [2] (EMSA, 25 nM oligonucleotide, 75 mM KCl, 10 mM Tris pH 7.5, room temperature 1 hr) is reported as “in the μM range”.

As to LQRPQLSKVKRKKPRGLFS (peptide, UniProt Q9H9Q4 281-299, looked up) [X-KBM peptide of XLF (L281 to S299), 19mer], in assay [3], the Kd is 2200 nM and the dH was -3.1 kcal/M.

For SKVKRKKPRGLFS (peptide, UniProt Q9H9Q4 287-299, looked up) [short X-KBM peptide of XLF (S287-S299), 13mer], the binding result in assay [4] is given as “binds”.

In assay [3], KQQPILAERKRILPTWML (peptide, UniProt Q8IW19 174-191, looked up) [18-mer A-KBM peptide of APLF (aa 174–191)] yielded a Kd of 20 ± 2 nM and a dH of -18.4 ± 0.7 kcal/M.
